We go through one molecule from paper PMC6357742, “Porphyromonas gingivalis in Alzheimer’s disease brains: Evidence for disease causation and treatment with small-molecule inhibitors” (Science Advances, 2019).

In experiment [1] the target is Kgp (Porphyromonas gingivalis, UniProt B2RLK2). Briefly: biochemical. The arrangement: species or system P. gingivalis.
In experiment [2] the target is Kgp (lysine gingipain) (Porphyromonas gingivalis, UniProt B2RLK2). Briefly: biochemical. The arrangement: species or system P. gingivalis.

On to `NCCCC[C@H](NC(=O)C1CCCC1)C(=O)COc1c(F)ccc(F)c1F` [COR388], for which, in experiment [1], the Ki is less than 0.01 nM and the “inhibition constant on Kgp (in words)” value is reported as “picomolar”. In experiment [2], this molecule displayed an IC50 not above 0.05 nM.
